Data taken from patent publication US6376502B1, “Osteoporosis compounds” (priority 1997, dated 2002).

Amino acid sequences for entries named in this document (tags omitted). A change or cut given only in a name is not applied to a line headed by its entry.
UniProt P43116: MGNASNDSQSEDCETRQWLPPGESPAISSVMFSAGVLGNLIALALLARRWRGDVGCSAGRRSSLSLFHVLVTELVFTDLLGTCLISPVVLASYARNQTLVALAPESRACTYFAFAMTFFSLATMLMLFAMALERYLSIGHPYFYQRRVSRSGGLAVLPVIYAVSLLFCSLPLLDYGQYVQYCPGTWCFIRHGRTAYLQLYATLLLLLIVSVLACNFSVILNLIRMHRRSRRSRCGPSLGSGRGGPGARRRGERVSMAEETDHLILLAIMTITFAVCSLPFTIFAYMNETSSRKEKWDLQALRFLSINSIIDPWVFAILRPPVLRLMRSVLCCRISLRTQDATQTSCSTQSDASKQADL

Molecular target: T1, human EP2 receptor (Homo sapiens, UniProt P43116)
T1 construct: cDNAs representing the complete open reading frames of the human EP2 and EP4 receptors; expressed in transfected cells
Experiment: Scatchard analysis of specific [3H]PGE2 binding in 293-S transfectants (EP2 line)
Conditions: read-out: Kd for PGE2 (EP2); 293-S line stably overexpressing recombinant human EP2, approximately 338,400 receptors per cell

Question: How did the Kd turn out when `CCCCC[C@H](O)/C=C/[C@H]1[C@H](O)CC(=O)[C@@H]1C/C=C\CCCC(=O)O` [PGE2, Prostaglandin E2] was run?
Answer: 12 nM
